Measured affinities in a library of Ab-14 heavy chain variants

All variants were tested on one target, the spike HR2 peptide PDVDLGDISGINAS (SARS-CoV-2).

The variants keep the light chain, the linker and the frameworks of Ab-14 (scFv order VH, a (GGGGS)3 linker, VL).
VH: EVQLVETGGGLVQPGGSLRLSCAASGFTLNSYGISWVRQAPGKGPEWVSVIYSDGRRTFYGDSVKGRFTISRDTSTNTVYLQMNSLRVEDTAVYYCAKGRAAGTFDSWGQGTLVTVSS
VL: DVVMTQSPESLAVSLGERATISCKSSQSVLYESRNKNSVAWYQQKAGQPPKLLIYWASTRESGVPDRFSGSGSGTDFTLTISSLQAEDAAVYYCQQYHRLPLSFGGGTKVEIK

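AAYL49 was designed without a model: most single CDR substitutions and a random sample of double and triple ones. The assay is AlphaSeq: two haploid yeast populations carry antibody and antigen on their surface. The frequency of each diploid, read from paired DNA barcodes, reflects how well the two displayed proteins bind. Each replicate has its own calibration line, from reference interactions of the BCL2 family. Mating was done three times.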

Each variant is given by its three heavy chain CDRs, as the data file delimits them; those of the parent are GFTLNSYGIS, VIYSDGRRTFYGDSVK, GRAAGTFDS. All variants listed here change G103 of the VH, counted from its first residue. Scale: log10 of Kd in nM, estimated from mating counts; low values are strong binders. The mean shown is taken over the replicates in which the pair was detected. "no signal" marks a missing value. The strain was present, yet no cells mated with the target were sequenced in any replicate, which points to weak or no binding. Parent in this assay: reference entry 0.65, copy in this library 4.11 (one replicate of three). Empty control strains, which show no peptide, gave a signal in 15% of pairings with library AAYL49; the median was 4.06 and 95% of these signals were weaker than 2.83. No background was subtracted.

- GFTLGSYGIS | VIYSDGRRTFYGDSVK | GRAAHTEDS -> 4.80 (3 of 3 replicates)
- GFTLNSYIIS | VIYSDGRRTFYGDSVK | GRAADTFDS -> 3.93 (1 of 3 replicates)
- GFTLNSYGIS | VIYSDCRRTCYGDSVK | GRAARTFDS -> no signal (0 of 3 replicates)
- GFTLCSYGIS | VIYSDGRRTFYGDSAK | GRAAETFDS -> 3.86 (3 of 3 replicates)
- GFTLNSYGIS | VIYSDGRRKFYGDSVK | GRAAATFDS -> 2.67 (3 of 3 replicates)
- IFTLNSYGIS | VIYSDGRRIFYGDSVK | GRAADTFDS -> 3.76 (1 of 3 replicates)
- GFTLNSYGIS | RIYSDGRRTFYGDSVK | GRAAITFDR -> no signal (0 of 3 replicates)
- GFTLNSYSIS | VIYSDGRRTFYGDSVK | GRAATTFDS -> no signal (0 of 3 replicates)
- GFTLNSYGIS | VIYSDGRRTFYGDSVK | GRAAVAFMS -> 5.05 (1 of 3 replicates)
- GFTLNSYGIS | VIYSDGRGTFYGDSVK | GRAARTFDS -> 4.51 (2 of 3 replicates)
- GFTLNSYGIS | VIYSDGRRTFYGDVVK | GGAAKTFDS -> no signal (0 of 3 replicates)
- GFTLNSYAIS | VIYSDGRRTFYGDVVK | GRAAPTFDS -> no signal (0 of 3 replicates)
- GFTLNSYGIS | VIYSDGRATFYGDSVK | QRAADTFDS -> no signal (0 of 3 replicates)
- HFTLNSYGFS | VIYSDGRRTFYGDSVK | GRAAVTFDS -> 3.91 (2 of 3 replicates)
- NFTLNSYGIS | VIYSDGRRTFYGLSVK | GRAADTFDS -> no signal (0 of 3 replicates)
- GFTLNSPGIS | VILSDGRRTFYGDSVK | GRAAHTFDS -> no signal (0 of 3 replicates)
- GFILNSYGDS | VIYSDGRRTFYGDSVK | GRAAPTFDS -> 4.16 (2 of 3 replicates)
- GFTLNSYGIS | VIYSDGARTFHGDSVK | GRAANTFDS -> no signal (0 of 3 replicates)
- GFTLNSYGIS | VIYSDGRRTFYHDSVK | GRACSTFDS -> no signal (0 of 3 replicates)
- GFFLNSYGIS | VIYSDGRRTFKGDSVK | GRAALTFDS -> no signal (0 of 3 replicates)
- GFTQNSYGIS | VIYSDGRRTFYGDSVK | ERAADTFDS -> no signal (0 of 3 replicates)
- GFTLNSYGIS | VIYSDGRRTFNGDSVK | GRFAHTFDS -> no signal (0 of 3 replicates)
- GFTLNSYGIP | VIYSDGRRTFYGDSVK | GRAATTFDQ -> no signal (0 of 3 replicates)
- GFTYNSYGIS | VIYSDGRRTFYGDSVK | ERAADTFDS -> no signal (0 of 3 replicates)
- GFTLNSYGIS | VMYSDGRRTFYGDSVK | GRVAATFDS -> 3.11 (2 of 3 replicates)
- GFTLNSMGIS | VIYSDGSRTFYGDSVK | GRAAWTFDS -> 0.96 (3 of 3 replicates)
- GFGLNSYGIS | VIYSDGRRTFYGDSVK | GRAAMTFDR -> no signal (0 of 3 replicates)
- GFTLNFYGIE | VIYSDGRRTFYGDSVK | GRAAHTFDS -> no signal (0 of 3 replicates)
- GFTLNSYGIP | VIYIDGRRTFYGDSVK | GRAAFTFDS -> no signal (0 of 3 replicates)
- GFTLNSYGIS | VIYSNGRHTFYGDSVK | GRAAYTFDS -> no signal (0 of 3 replicates)
- GFTLNSYGIS | VIYSDGRRTIYGDSVT | GRAASTFDS -> 5.00 (1 of 3 replicates)
- GFTLCSYGIS | VTYSDGRRTFYGDSVK | GRAARTFDS -> no signal (0 of 3 replicates)

Excerpt, the first 3 entries:

CDR-H1	CDR-H2	CDR-H3	log10 Kd (nM), mean	replicates with signal
GFTLGSYGIS	VIYSDGRRTFYGDSVK	GRAAHTEDS	4.80	3/3
GFTLNSYIIS	VIYSDGRRTFYGDSVK	GRAADTFDS	3.93	1/3
GFTLNSYGIS	VIYSDCRRTCYGDSVK	GRAARTFDS	no signal	0/3

Reference: Engelhart et al. 2022, doi:10.1038/s41597-022-01779-4. File: FLAb, binding data.